Results as given in article PMC3521585 (Journal of medicinal chemistry, 2009).

Protein sequences, listed by entry. Tags and fused reporters are not part of them.
UniProt P14600, whole entry: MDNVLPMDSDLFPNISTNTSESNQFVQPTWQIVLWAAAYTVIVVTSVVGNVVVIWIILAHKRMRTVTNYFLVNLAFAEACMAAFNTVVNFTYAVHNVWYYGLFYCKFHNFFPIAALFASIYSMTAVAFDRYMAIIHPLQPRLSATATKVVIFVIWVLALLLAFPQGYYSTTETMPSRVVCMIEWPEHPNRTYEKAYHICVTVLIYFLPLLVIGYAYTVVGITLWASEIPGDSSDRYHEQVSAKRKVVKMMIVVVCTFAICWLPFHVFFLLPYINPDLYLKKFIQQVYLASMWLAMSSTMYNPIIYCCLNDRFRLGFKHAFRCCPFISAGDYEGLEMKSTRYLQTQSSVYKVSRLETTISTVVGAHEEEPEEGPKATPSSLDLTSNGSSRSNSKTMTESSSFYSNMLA
UniProt P25103, whole entry: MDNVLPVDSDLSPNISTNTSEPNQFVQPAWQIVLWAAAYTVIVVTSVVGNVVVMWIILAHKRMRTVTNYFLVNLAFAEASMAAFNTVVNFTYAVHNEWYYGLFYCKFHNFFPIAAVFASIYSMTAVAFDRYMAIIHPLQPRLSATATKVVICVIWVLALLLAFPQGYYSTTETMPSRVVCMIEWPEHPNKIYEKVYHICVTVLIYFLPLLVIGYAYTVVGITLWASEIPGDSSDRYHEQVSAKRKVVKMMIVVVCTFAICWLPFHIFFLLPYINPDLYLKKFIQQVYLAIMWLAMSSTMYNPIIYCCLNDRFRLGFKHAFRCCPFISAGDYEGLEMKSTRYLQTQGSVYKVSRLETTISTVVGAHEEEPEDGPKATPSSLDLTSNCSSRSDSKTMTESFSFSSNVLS

Legend:
Experiment in all cases: radioligand binding
[1] = biological target: rat NK1 receptor (rat, UniProt P14600 1-407)
[2] = biological target: human δ-opioid receptor (human, UniProt P41143 1-372)
[3] = biological target: human NK1 receptor (human, UniProt P25103 1-407)

B1: Tyr-D-Ala-Gly-Phe-Nle-Ser(Glc)-Leu-Trp-NH-3’,5’-Bzl(CF3)2 (peptide)
chain: YAGFXSLW
modifications: D-Ala at 2; norleucine (Nle) at 5 (written X); O-β-glucosylated serine (Ser(Glc)) at 6; C-terminal 3’,5’-bis(trifluoromethyl)benzyl amide
LogIC50 [1]: -7.14
LogIC50 [2]: -7.12

B2: Tyr-D-Ala-Gly-Phe-Nle-Pro-Ser(Glc)-Trp-NH-3’,5’-Bzl(CF3)2 (peptide)
chain: YAGFXPSW
modifications: D-Ala at 2; norleucine (Nle) at 5 (written X); O-β-glucosylated serine (Ser(Glc)) at 7; C-terminal 3’,5’-bis(trifluoromethyl)benzyl amide
LogIC50 [3]: -9.75
